Data on one compound can be found in patent publication US6803371B2, “Purine inhibitors of protein kinases, G proteins and polymerases” (The Regents of the University of California, priority 1997, dated 2004).

Structures are written as SMILES.

This test concerns the target CDK2/cyclinE (Homo sapiens, UniProt P24941). In words: CDK2/cyclinE kinase inhibition. The format is biochemical. The settings on record: read-out: IC50 (additional kinases) CDK2/cyclinE.

As for `COc1ccc(CNc2nc(N[C@@H](CO)C(C)C)nc3c2ncn3C(C)C)cc1` [NG-75], the IC50 was found to be 140 nM.
